Assay: Inhibition of Phosphodiesterase 5 from porcine platelets

IC50: 8.6 nM
Structure (SMILES): O=C(O)C1CCN(c2nc(NCc3ccc4c(c3)OCO4)c3cc(Cl)ccc3n2)CC1 [Sodium; 1-{4-[(benzo[1,3]dioxol-5-ylmethyl)-amino]-6-chloro-quinazolin-2-yl}-piperidine-4-carboxylate]

From BindingDB's records for doi:10.1021/jm970815r (Eisai, 1998)
